This is an account of results in US9802904B2, “Inhibitors of the USP1/UAF1 deubiquitinase complex and uses thereof” (The United States of America, as represented by the …, priority 2012, dated 2017).

Amino acid sequences for entries named in this document (tags omitted).
UniProt O94782, whole entry: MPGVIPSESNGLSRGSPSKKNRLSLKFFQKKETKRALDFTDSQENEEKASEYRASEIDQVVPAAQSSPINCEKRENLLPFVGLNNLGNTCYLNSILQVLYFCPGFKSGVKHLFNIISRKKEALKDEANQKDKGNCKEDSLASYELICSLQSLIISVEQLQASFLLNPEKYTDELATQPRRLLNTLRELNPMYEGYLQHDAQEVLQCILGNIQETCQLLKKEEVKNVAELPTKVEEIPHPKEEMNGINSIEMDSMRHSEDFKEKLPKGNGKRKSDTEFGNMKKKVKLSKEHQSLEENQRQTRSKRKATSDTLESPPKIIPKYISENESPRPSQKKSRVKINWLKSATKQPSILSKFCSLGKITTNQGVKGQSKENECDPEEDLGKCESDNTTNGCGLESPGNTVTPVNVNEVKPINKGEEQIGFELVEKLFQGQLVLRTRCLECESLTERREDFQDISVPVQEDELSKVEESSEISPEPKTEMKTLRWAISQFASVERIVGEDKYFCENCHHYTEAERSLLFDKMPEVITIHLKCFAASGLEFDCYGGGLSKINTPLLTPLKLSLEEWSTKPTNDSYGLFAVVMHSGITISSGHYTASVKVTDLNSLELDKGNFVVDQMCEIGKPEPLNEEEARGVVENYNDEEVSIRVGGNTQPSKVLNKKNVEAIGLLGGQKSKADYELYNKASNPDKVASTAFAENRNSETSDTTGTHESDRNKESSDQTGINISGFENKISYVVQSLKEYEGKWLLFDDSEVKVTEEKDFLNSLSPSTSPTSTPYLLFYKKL
UniProt Q8TAF3, whole entry partner: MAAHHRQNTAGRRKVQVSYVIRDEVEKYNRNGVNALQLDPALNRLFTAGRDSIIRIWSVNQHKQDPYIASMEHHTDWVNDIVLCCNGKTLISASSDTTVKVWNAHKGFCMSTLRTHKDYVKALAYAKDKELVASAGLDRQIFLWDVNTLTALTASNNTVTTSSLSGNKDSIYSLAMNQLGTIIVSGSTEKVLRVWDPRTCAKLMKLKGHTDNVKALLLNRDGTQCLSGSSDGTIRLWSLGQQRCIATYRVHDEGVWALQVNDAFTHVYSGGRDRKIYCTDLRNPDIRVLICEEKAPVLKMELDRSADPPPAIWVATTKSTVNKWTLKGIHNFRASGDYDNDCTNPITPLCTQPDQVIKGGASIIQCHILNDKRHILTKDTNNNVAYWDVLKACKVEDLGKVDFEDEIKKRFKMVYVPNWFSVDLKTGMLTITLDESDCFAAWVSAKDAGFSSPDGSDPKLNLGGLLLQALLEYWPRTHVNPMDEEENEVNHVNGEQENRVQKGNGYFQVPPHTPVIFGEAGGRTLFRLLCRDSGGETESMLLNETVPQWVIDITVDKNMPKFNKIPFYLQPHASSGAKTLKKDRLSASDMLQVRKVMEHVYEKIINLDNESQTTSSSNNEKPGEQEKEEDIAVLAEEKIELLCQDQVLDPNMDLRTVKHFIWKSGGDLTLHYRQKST

The first assay concerns the target USP1/UAF1 (Homo sapiens (Human), UniProt O94782). Put plainly: qHTS assay for USP1/UAF1 activity (fluorometric, ubiquitin-rhodamine110). It counts as biochemical. The following applies: USP1/UAF1 inhibition, Table 2. For orientation: qHTS replaces the single test concentration by a dilution series.
Turning to `O=[N+]([O-])c1ccccc1-c1nc(NCc2ccc(-c3cccnc3)cc2)c2ccccc2n1`, the IC50 (in general, the midpoint of a concentration-inhibition curve) worked out at 4.3 µM. For `COc1ccccc1-c1nc(NCc2ccc(-c3cccnc3)cc2)c2ccccc2n1`, the half-maximal inhibitory concentration (IC50) turned out to be 0.68 µM. Same read-out and setting: in the case of `c1cncc(-c2ccc(CNc3nc(C4CCCC4)nc4ccccc34)cc2)c1` it was 17 µM; in that of `Cc1ccccc1-c1nc(NCc2ccc(-c3cccnc3)cc2)c2ccccc2n1`, 0.48 µM; in that of `FC(F)(F)c1cccc(-c2nc(NCc3ccc(-c4cccnc4)cc3)c3ccccc3n2)c1`, 27 µM. Same read-out and setting: in the case of `CC(C)c1ccccc1-c1nc(NCc2ccc(-c3cccnc3)cc2)c2ccccc2n1` it was 0.15 µM; in that of `c1cncc(-c2ccc(CNc3nc(-n4ccnc4)nc4ccccc34)cc2)c1`, 27 µM. Still for that read-out and setting: in the case of `CCc1ccccc1-c1nc(NCc2ccc(-c3cccnc3)cc2)c2ccccc2n1` it was 0.61 µM. Turning to `c1cncc(-c2ccc(CNc3nc(N4CCCC4)nc4ccccc34)cc2)c1`, the 50% inhibitory concentration (IC50) turned out to be 27 µM. The same measure, in the same setting: in the case of `CN(CC(F)(F)F)c1nc(NCc2ccc(-c3cccnc3)cc2)c2ccccc2n1` it was 7.6 µM; in that of `Brc1ccccc1-c1nc(NCc2ccc(-c3cccnc3)cc2)c2ccccc2n1`, 0.96 µM.

Molecule `Fc1ccccc1-c1nc(NCc2ccc(-c3cccnc3)cc2)c2ccccc2n1` displayed a half-maximal inhibitory concentration (IC50) of 3.4 µM.

On to `Clc1ccccc1-c1nc(NCc2ccc(-c3cccnc3)cc2)c2ccccc2n1`, for which the IC50 is 0.86 µM. Compared with the last molecule, the IC50 is about 4-fold lower.

Staying with this assay, now noted: USP1/UAF1 inhibition, Table 3.
The molecule `Cc1cnc(-c2ccccc2C(C)C)nc1NCc1ccc(-c2cccnc2)cc1` [Compound 86] returned an IC50 of 0.068 µM.
